The record followed here is patent US20140288069A1, “AMINO-SUBSTITUTED IMIDAZOPYRIDAZINES AS MKNK1 KINASE INHIBITORS” (Bayer Intellectual Property GmbH, priority 2011, published 2014).

The chains behind the UniProt entries cited, without tags or fusion partners. Residues count along the entry.
UniProt Q9BUB5, 1-424 isoform Q9BUB5-2 T344D: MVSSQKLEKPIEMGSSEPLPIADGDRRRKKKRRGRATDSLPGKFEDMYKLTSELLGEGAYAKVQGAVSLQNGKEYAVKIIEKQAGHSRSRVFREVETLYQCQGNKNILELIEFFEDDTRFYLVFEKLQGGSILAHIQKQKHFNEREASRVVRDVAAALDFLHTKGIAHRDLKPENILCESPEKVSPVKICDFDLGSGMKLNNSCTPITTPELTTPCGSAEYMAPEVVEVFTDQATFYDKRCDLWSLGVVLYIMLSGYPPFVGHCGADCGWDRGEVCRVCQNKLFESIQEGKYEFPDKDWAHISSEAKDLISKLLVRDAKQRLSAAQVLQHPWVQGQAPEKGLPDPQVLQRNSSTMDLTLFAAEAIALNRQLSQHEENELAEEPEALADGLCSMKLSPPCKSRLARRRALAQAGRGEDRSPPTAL

Assay [1] concerns the target T1, human full-length MKNK1 (Homo sapiens, UniProt Q9BUB5, T385D).
T1 construct: GST (N); purchased Carna Biosciences 02-145; host or cells: insect cells (baculovirus)
The experiment in a line: MKNK1 kinase high ATP assay (TR-FRET-based).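 Note: biotinylated peptide phosphorylation read out via Eu-chelate to streptavidin-XL665 energy transfer using anti-phospho-S6 (Ser236) antibody, 30 min reaction at 22 °C with 0.06 µM substrate.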 Type of assay: biochemical. The note with it: final ATP 2 mM, 15 min pre-incubation with MKNK1, GST-MKNK1 (T344D). As to the method:
MKNK1-inhibitory activity at high ATP of compounds of the present invention after their preincubation with MKNK1 was quantified employing the TR-FRET-based MKNK1 high ATP assay as described in the following paragraphs.
A recombinant fusion protein of Glutathione-S-Transferase (GST, N-terminally) and human full-length MKNK1 (amino acids 1-424 and T344D of accession number BAA 19885.1), expressed in insect cells using baculovirus expression system and purified via glutathione sepharose affinity chromatography, was purchased from Carna Biosciences (product no 02-145) and used as enzyme. As substrate for the kinase reaction the biotinylated peptide biotin-Ahx-[…] (C-terminus in amide form) was used, which can be purchased e.g. from the company Biosyntan (Berlin-Buch, Germany). […]
The resulting mixture was incubated for 1 h at 22° C. to allow the formation of complex between the phosphorylated biotinylated peptide and the detection reagents. Subsequently the amount of phosphorylated substrate was evaluated by measurement of the resonance energy transfer from the Eu-chelate to the streptavidine-XL. Therefore, the fluorescence emissions at 620 nm and 665 nm after excitation at 350 nm were measured in a TR-FRET reader, e.g. a Rubystar (BMG Labtechnologies, Offenburg, Germany) or a Viewlux (Perkin-Elmer). […]

The target in assay [2] is T2, human full-lengt MKNK1 (Homo sapiens, UniProt Q9BUB5, T385D).
T2 construct: GST (N); purchased Carna Biosciences 02-145; host or cells: insect cells (baculovirus)
The experiment in a line: MKNK1 kinase assay (MKNK1 TR-FRET assay). It counts as biochemical. The note with it: final ATP 10 μM, 15 min pre-incubation, GST-MKNK1 (T344D). As to the method:
MKNK1-inhibitory activity of compounds of the present invention was quantified employing the MKNK1 TR-FRET assay as described in the following paragraphs.
As substrate for the kinase reaction the biotinylated peptide biotin-Ahx-[…] (C-terminus in amide form) was used which can be purchased e.g. form the company Biosyntan (Berlin-Buch, Germany).
For the assay 50 mL of a 100 fold concentrated solution of the test compound in DMSO was pipetted into a black low volume 384 well microtiter plate (Greiner Bio-One, Frickenhausen, Germany), 2 μL of a solution of MKNK1 in aqueous assay buffer [50 mM HEPES pH 7.5, 5 mM magnesium chloride, 1.0 mM dithiothreitol, 0.005% (v/v) Nonidet-P40 (Sigma)] was added and the mixture was incubated for 15 min at 22° C. to allow pre-binding of the test compounds to the enzyme before the start of the kinase reaction. […] The concentration of MKNK1 was adjusted depending of the activity of the enzyme lot and was chosen appropriate to have the assay in the linear range, typical concentrations were in the range of 0.05 μg/ml.
The resulting mixture was incubated for 1 h at 22° C. to allow the formation of complex between the phosphorylated biotinylated peptide and the detection reagents. Subsequently the amount of phosphorylated substrate was evaluated by measurement of the resonance energy transfer from the Eu-chelate to the streptavidine-XL.
(Time-resolved FRET reads energy transfer from a long-lived donor to a nearby acceptor.)

For `c1cc(-c2cnc3ccc(NC4CCCCC4)nn23)ccn1` [Example R3, N-Cyclohexyl-3-(pyridin-4-yl)-imidazo-[1,2-b]-pyridazin-6-amine, reference compound], the 50% inhibitory concentration (IC50) worked out at 230 nM in assay [1] and 118 nM in assay [2].

The IC50 is the point on the concentration scale where inhibition reaches its midpoint.
